Consider one compound from patent publication US12525646B2, “Ionic cyclic nitroxyl radical oligomers” (Wisconsin Alumni Research Foundation, priority 2021, dated 2026).

A short description of this series: Electrochemical impedance spectroscopy (PEIS), Z-fitting to ideal Randle equivalent circuit. To be noted: PEIS Z-fit. It is filed as physicochemical. The source says: The mono-cation dimers (N+TEMPOD and Eth-N+TEMPOD) and the two di-cation dimers (N+N+TEMPOD and Eth-DABCO-TEMPOD) were further characterized. […] A negative correlation was found between electron transfer rate constant (k^0) and molecular size for these dimers, but no trend was found with 4-position functionalization.

For the compound `CC1(C)CC([N+](C)(C)C2CC(C)(C)N([O])C(C)(C)C2)CC(C)(C)N1[O]` [i-TEMPOD-1], the “W1 (σ)” value worked out at 246.
